Reference: patent US20050180956A1, “SSAO enzyme substrates for vasorelaxation, and methods of use thereof” (priority 2004, published 2005)

Legend:
cGMP level in human RSV = experiment: cGMP ELISA assay in RSV segments
[1] = test system: human right saphenous vein (RSV); experiment: Vascular ring physiology, isolated human right saphenous vein rings; conditions: NE-precontracted RSV; MA 1 mmol/L or SNP 100 μmol/L, 30-40 min

## sodium nitroprusside
cGMP level in human RSV; NE-precontracted RSV, MA 1 mmol/L or SNP 100 μmol/L, 30-40 min, control 0.118 ± 0.028
  [cGMP], RSV: 0.322 ± 0.065 pmol/mg
cGMP level in human RSV; SNP 100 μmol/L, statistically significant vs control
  fold increase in cGMP levels in NE-precontracted RSV: 3 fold
[1]
  % Relaxation, RSV: 100 ± 0%

This is a selection: effects in other tests are not listed, and their absence says nothing.
